This test deals with T1, M3 receptor (carbachol-induced detrusor contraction) (Rattus norvegicus, UniProt P08483).
T1 construct: the whole bladder was immediately isolated to prepare detrusor strips in Krebs’ solution; from tissue; host or cells: bladder detrusor strips / bladder sections of SHR
Briefly: Carbachol-induced bladder strip (detrusor) contraction, ex vivo organ bath. It counts as cell-based, spontaneously hypertensive rats (SHRs). Here is the method: SHRs were sacrificed with carbon dioxide, and the whole bladder was immediately isolated to prepare detrusor strips in Krebs’ solution. Then, the strips were placed in a PanLab organ bath (Harvard Apparatus, Holliston, Massachusetts, United States) full of bubbling Krebs’ solution at 37°C. After stimulation with high-potassium solution, the strips were washed with Krebs’ solution three times. When the strips were incubated in Krebs’ solution until the tension was set at about 1.5 g, 0.1% DMSO was added for a 10-min incubation as a control, and then the muscle strip was stimulated to shrink by adding muscarinic agonist carbachol (10 μM), which is used for determinization of M3 receptor function in the bladder strip ([Liang and Leung, 2012]). Between two stimulations, the strips were washed out and balanced for 15 min. The contraction force of the bladder strip was recorded. After the experiment, detrusor strips were collected, dried, and weighed for data normalization. Data were recorded and analyzed using LabChart software (version 8.0).
Detrusor strips were isolated from SHRs and placed in the organ bath as mentioned previously, and then inhibitory activities of different fractions at 100 μg/ml were tested under carbachol (10 μM)-stimulated detrusor contraction.

Protein sequences, listed by entry. Tags and fused reporters are not part of them.
UniProt P08483, whole entry: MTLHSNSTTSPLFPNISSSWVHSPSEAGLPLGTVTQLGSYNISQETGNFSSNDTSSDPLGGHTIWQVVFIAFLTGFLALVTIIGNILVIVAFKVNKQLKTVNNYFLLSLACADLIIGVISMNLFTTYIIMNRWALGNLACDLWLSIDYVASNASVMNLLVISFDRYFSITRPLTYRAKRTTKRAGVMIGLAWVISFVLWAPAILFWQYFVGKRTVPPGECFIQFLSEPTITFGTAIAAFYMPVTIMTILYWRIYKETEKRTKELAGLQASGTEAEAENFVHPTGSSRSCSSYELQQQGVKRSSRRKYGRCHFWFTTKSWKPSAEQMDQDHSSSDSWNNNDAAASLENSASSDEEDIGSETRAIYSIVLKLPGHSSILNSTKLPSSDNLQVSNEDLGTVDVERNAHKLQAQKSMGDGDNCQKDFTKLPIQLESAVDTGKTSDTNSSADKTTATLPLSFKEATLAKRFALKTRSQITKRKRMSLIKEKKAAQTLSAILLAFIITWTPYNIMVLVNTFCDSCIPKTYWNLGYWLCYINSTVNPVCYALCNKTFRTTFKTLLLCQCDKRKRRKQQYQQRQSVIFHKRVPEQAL

≈ marks a conversion by molar mass, not a printed value.

As usually defined, the IC50 is the concentration needed to halve the response being measured. Low values mean greater potency in that assay, high ones weaker potency in that assay. Molecule `O=c1c(-c2ccc(O)cc2)coc2cc(O)cc(O)c12` [Genistein, Genistein (5-hydroxyl daidzein)] gave a half-maximal inhibitory concentration (IC50) of 68.7 µM. Under “carbachol (10 μM)-induced detrusor contraction, Mean ± SEM, n = 3”, this molecule displayed an IC10 value of 5.05 ± 0.58 mg/L (≈ 18.7 µM).
